According to ChEMBL document CHEMBL1128257, “Chemically stable N-methyl-4-(alkylthio)cyclophosphamide derivatives as prodrugs of 4-hydroxycyclophosphamide” (J Med Chem, 1995):

Key:
SR = assay: cytotoxicity against leukemia subpanel (SR); conditions: Homo sapiens
K562 = assay: cytotoxicity against leukemia subpanel (K562); conditions: Homo sapiens
MOLT-4 = assay: cytotoxicity against leukemia subpanel (MOLT-4); conditions: Homo sapiens
CCRF-CEM = assay: cytotoxicity against leukemia subpanel (CCRF-CEM); conditions: Homo sapiens
RPMI-8226 = assay: cytotoxicity against leukemia subpanel (RPMI-8226); conditions: Homo sapiens
HL-60 = assay: cytotoxicity against leukemia subpanel (HL-60 (TB)); conditions: Homo sapiens
DMS-114 = assay: cytotoxicity against small cell lung cancer subpanel (DMS 114); conditions: Homo sapiens
DMS-273 = assay: cytotoxicity against small cell lung cancer subpanel (DMS 273); conditions: Homo sapiens
[1] = MGDH represents the selectivity or relative sensitivity of the tumor cell panel to the drug.

Q: Which GI50 (SR) does the source give for `CCCSC1CCOP(=O)(N(CCCl)CCCl)N1C` (centres undefined) here?
A: Its GI50 is 47.9 µM.

Q: What about the GI50 (K562) of the same compound?
A: The GI50 was 49 µM.

Q: What about the GI50 (MOLT-4) of the same compound?
A: Its GI50 is greater than 100 µM.

Q: What about the GI50 (CCRF-CEM) of the same compound?
A: The GI50 was greater than 100 µM.

Q: And the GI50 (RPMI-8226)?
A: Its GI50 is 79.4 µM.

Q: And the GI50 (HL-60)?
A: The GI50 was 17.8 µM.

Q: And the GI50 (DMS-114)?
A: Its GI50 is 43.7 µM.

Q: What about the GI50 (DMS-273) of the same compound?
A: The GI50 was greater than 100 µM.

Q: What about the MGDH GI50 [1] of the same compound?
A: Its MGDH GI50 is 54.5.
